In PubChem BioAssay AID504333 (National Center for Advancing Translational Sciences (NCATS), 2011):
The list shows a part of the results, in another mix than the full data. Results filed as inconclusive are left out. Entries that show only a call come without a potency. Active and inactive are the calls of the source. The call rests on the fitted dose curve; in most records, active means well fitted inhibition curve with a large enough effect; inconclusive means small, poorly fitted or top-dose-only effect; inactive means no such curve, though single readings can be large or run the other way.

Sequences of proteins named here, by UniProt entry; tags and fusion partners are left off. A change or cut given only in a name is not applied to a line headed by its entry.
UniProt Q9UIF8: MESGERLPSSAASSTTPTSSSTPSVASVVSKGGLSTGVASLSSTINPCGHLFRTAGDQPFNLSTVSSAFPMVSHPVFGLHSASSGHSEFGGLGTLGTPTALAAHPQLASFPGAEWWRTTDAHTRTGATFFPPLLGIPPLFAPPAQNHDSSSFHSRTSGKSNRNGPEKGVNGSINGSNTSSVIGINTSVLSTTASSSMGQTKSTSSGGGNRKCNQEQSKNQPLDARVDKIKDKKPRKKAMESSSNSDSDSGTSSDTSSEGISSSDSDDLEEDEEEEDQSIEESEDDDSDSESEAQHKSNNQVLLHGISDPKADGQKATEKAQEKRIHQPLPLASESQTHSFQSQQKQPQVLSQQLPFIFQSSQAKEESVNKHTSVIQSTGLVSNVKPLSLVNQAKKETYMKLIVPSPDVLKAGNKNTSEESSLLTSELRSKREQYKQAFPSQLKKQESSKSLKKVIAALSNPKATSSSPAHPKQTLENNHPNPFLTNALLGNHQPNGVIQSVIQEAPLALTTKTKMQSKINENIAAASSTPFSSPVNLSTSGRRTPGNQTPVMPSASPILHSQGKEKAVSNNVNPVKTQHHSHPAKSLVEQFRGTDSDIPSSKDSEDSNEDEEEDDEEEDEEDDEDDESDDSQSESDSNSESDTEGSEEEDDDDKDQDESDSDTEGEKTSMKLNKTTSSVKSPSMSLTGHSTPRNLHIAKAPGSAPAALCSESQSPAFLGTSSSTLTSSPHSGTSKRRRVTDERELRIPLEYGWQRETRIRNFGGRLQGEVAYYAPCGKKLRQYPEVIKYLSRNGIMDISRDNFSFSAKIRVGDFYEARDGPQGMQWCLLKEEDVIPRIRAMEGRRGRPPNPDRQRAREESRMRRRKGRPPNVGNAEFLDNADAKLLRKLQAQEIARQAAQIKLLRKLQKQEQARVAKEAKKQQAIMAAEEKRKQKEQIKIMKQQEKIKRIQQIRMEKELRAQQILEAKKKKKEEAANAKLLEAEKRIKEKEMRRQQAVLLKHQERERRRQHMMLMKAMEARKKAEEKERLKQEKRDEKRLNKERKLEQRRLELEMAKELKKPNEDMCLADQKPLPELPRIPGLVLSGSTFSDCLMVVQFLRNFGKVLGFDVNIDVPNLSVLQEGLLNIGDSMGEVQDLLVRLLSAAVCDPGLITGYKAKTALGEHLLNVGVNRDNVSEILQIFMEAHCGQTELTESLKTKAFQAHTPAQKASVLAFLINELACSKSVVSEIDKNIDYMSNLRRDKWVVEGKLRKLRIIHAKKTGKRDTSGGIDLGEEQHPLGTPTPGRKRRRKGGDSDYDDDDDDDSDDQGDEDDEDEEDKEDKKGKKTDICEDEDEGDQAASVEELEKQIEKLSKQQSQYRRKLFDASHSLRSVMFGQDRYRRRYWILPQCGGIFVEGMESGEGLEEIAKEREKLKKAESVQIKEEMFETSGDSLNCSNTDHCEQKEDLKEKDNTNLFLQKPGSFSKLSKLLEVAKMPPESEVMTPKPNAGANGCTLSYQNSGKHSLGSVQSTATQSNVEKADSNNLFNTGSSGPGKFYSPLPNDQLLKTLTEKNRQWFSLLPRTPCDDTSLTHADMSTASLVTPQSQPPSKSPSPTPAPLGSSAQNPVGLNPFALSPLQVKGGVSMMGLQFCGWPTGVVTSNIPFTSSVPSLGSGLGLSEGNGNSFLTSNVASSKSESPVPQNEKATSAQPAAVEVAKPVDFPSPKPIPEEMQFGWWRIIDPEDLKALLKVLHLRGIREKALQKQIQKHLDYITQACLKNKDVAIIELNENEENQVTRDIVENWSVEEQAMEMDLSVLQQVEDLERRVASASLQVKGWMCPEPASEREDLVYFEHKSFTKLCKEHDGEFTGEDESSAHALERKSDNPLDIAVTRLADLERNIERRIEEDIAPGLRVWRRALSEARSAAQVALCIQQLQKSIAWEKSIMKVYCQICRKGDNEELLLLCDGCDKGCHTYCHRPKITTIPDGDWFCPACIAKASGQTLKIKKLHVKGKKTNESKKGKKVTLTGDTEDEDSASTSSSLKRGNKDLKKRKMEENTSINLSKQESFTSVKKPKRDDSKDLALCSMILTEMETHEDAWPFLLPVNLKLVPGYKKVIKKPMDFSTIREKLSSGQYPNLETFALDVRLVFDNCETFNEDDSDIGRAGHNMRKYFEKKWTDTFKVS

target: Bromodomain adjacent to zinc finger domain protein 2B (Homo sapiens) (UniProt Q9UIF8); assay: qHTS Assay for Inhibitors of BAZ2B; settings: AlphaScreen BAZ2B-H3K14Ac peptide displacement; series mostly up to 114 µM; further: nearly all actives have a fitted effect of over 60% in size
Potency means the concentration at half of the fitted maximal effect.

| SMILES | Potency |
| --- | --- |
| Cc1cc(=O)[nH]c(N[N+](=O)[O-])n1 | inactive |
| O=C(OC1CN2CCC1CC2)C12CC3CC(CC(C3)C1)C2 (stereo not drawn) | inactive |
| Cc1c2c(nc3ccccc13)SC(C(Cl)Cl)C2 (stereo not drawn) | inactive |
| COc1cc(I)ccc1[As](=O)(O)O | inactive |
| COc1ccc2nc(NP(=O)(c3ccccc3)c3ccccc3)sc2c1 | inactive |
| COc1ccc(N/C(=N/P(=O)(N2CCOCC2)N2CCOCC2)N2CCOCC2)cc1 | inactive |
| COc1cc(C(=O)NCC2(N3CCOCC3)CCCCC2)ccc1OCC(C)C | inactive |
| O=[As](O)(c1ccc(O)cc1)c1ccccc1O | inactive |
| C[As](=O)(O)c1cccc(C(=O)O)c1 | inactive |
| Cc1ccc2nc3c(c(C)c2c1)CC(C(Cl)Cl)S3 (stereo not drawn) | inactive |
| Cc1ccc(OP(=O)(Nc2ccc([N+](=O)[O-])cn2)Oc2ccc(C)cc2)cc1 | inactive |
| CC(C)c1ccc(OP(=O)(Nc2ccccn2)Oc2ccccc2F)cc1 (stereo not drawn) | inactive |
| ClCCSc1nnc(-c2cccnc2)o1 | inactive |
| CCN(CC)C(=S)SC(NC=O)C(Cl)(Cl)Cl (stereo not drawn) | inactive |
| CC(C)NC(=O)NP(=O)(Oc1ccccc1)Oc1ccccc1 | inactive |
| CCOC(=O)Nc1ccc([As](=O)(O)O)c(O)c1 | inactive |
| Cc1cc(SC(NC(=O)c2ccccc2)C(Cl)(Cl)Cl)nc(C(C)C)n1 (stereo not drawn) | inactive |

| SMILES | Potency |
| --- | --- |
| CCCCOc1ccc(C(=O)NCC2(N3CCCCC3)CCCCC2)cc1OC | inactive |
| CCOC(=O)Nc1cccc([As](=O)(O)O)c1 | inactive |
| O=[N+]([O-])c1ccc(Nc2ccc(Oc3ccc([N+](=O)[O-])cc3[N+](=O)[O-])cc2)c([N+](=O)[O-])c1 | inactive |
| O=P(Nc1ccccn1)(c1cccc2ccccc12)c1cccc2ccccc12 | inactive |
| Cc1cc(SC(NC=O)C(Cl)(Cl)Cl)ncn1 (stereo not drawn) | active: 44.7 µM |
| COP1(=S)c2c(C)nn(CCC#N)c2N=C(c2ccc(F)cc2)N1C (stereo not drawn) | inactive |
| O=C(Nc1ccncc1[N+](=O)[O-])c1ccc([N+](=O)[O-])cc1[N+](=O)[O-] | inactive |
| O=C(COc1ccccc1)OC1CN2CCC1CC2 (stereo not drawn) | inactive |
| CCOC(=O)c1ccc(NC(=O)C(C)(CCl)SC)cc1 (stereo not drawn) | inactive |
| O=C(OC1CN2CCC1CC2)c1cccc([N+](=O)[O-])c1 (stereo not drawn) | inactive |
| CCC(C)N(CC(C)C)C(=S)SC(NC(C)=O)C(Cl)(Cl)Cl (stereo not drawn) | inactive |
| CCOP(=O)(Nc1ccc(C)cn1)OCC | inactive |
| CCOP(=O)(NC(=NC(C)c1ccccc1)NC(C)c1ccccc1)OCC (stereo not drawn) | inactive |
| O=P1(Nc2ccccn2)COc2ccccc2OC1 | inactive |
| CCC1=CC2Cc3nc4ccc(Cl)cc4c(N)c3C(C1)C2 (stereo not drawn) | inactive |
| CC(C)(C)C(=O)NC(Sc1ncccn1)C(Cl)(Cl)Cl (stereo not drawn) | active: 79.4 µM |
